Assay results as given in US5214030A, “Calcitonin gene-related peptides for treating erectile dysfunctions” (priority 1989, dated 1993).

System: Cynomolgus monkeys
Test: intracavernous injection in Cynomolgus monkeys under ketamine anaesthesia (tumescence, intracavernal pressure, cavernal artery flow, blood pressure)
Format: in vivo, Cynomolgus monkey
Design: key to maximum tumescence and elongation (class): E 0=no tumescence; E 1=slight tumescence; E 2 =partial tumescence; E 3=complete tumescence
Details: for intracavernous pressure (average): 500 ng
Experimental: The necessary in vivo experiments were carried out on seven Cynomolgus monkeys with a body weight of from 4.3 to 8.3 kg under ketamine anaesthesia (30 mg/kg intramuscular). The monkeys were placed in the dorsal position. Under sterile conditions, a 21-G butterfly cannula was placed bilaterally into the distal erectile tissue. For the recordal of the intracavernal pressure, a needle was connected with a Statham pressure converter (model P23 BC) and the other used for the intracavernous injection or perfusion. The penile tumescence was monitored visually by two observers and recorded. A classification of the tumescence took place according to the parameters: E 0=no tumescence; E 1=slight tumescence; E 2 =partial tumescence; E 3=complete tumescence. A flowthrough measurement of the cavernal arteries was carried out by means of ultrasonics on four monkeys. The pulse and blood pressure were measured by means of Doppler measurement (Parks Medical Electronics) on the radial artery with the help of a paediatric blood pressure cuff.
In a pilot study, 50, 500 and 2500 ng h-CGRP (Sigma Chemical Co., St. Louis, Mo.) were injected intracavernously into two monkeys. […] Therefore, the further investigations were carried out with dosages of 500 ng and, for ensuring the reproducability, repeated on a second day.

With “h-CGRP: human calcitonin gene-related peptide of formula (I), obtained from Sigma Chemical Co.” the “time after injection at which arterial flow could no longer be ascertained (average)” value (500 ng intracavernously) was 49 min, the “time after injection up to which maximum tumescence lasted” value (500 ng intracavernously) was “up to 15 minutes” and the “time for intracavernous pressure to decrease to the initial value” (500 ng intracavernously) was ≤ 36 min. The “time of maximum flow rate of the cavernous artery after injection (average)” value (500 ng intracavernously) was 4 min, the “time to maximum tumescence after injection” value (500 ng intracavernously) was 4 min and the “time until no difference between tumescence before and after injection (average)” value (500 ng intracavernously) was 32 min. The “arterial flow after intracavernous injection” value (500 ng intracavernously, flow not measurable before injection) was “an increase of the arterial flow was observed”, the “maximum tumescence and elongation (class)” value (500 ng intracavernously, from 4 minutes up to 15 minutes after injection) was “E 3” and the “intracavernous pressure (average)” value (90 to 120 seconds after the injection, before injection average 34) was 78 cm H2 O. The “intracavernous pressure (average)” value (after 4 minutes, decreased within 1 minute) was 47 cm H2 O, the penile tumescence (pilot study, 50 ng intracavernously, two monkeys) was “only a slight, brief tumescence” and the systemic blood pressure (pilot study, 2500 ng intracavernously) was “below 35 cm H2 O”.
